# AlphaSeq binding of Ab-14 heavy chain variants to a spike HR2 peptide

The measurements come from Li et al. 2023 (doi:10.1038/s41467-023-39022-2) through the FLAb antibody collection.

Antigen: PDVDLGDISGINAS, a 14-residue peptide of the SARS-CoV-2 spike HR2 region.

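The starting antibody came from a phage panning campaign against this peptide. This is the validation round: designs drawn from the data on random variants, tested in the same kind of assay. Group labels follow the data file (Ctrl: baseline library sampled from a position-specific scoring matrix, with some repeated check sequences; Rand: our label for a block that the file lists under HC and that is probably the random mutants of the ten best first-round binders; En: ensemble of fine-tuned language models; GP: Gaussian process model; GPLM: also part of the Gaussian process libraries; HC: hill climbing; Gen: genetic algorithm; Gibbs: Gibbs sampling; a sequence that several methods proposed may carry one label only). In AlphaSeq, yeast of one mating type display the scFv and yeast of the other type display the target. The frequency of each diploid, read from paired DNA barcodes, reflects how well the two displayed proteins bind. Scores were corrected for input abundance and mapped to Kd with protein pairs of known affinity run in the same pool. There are six technical replicates.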

Each scFv is VH, a 15-residue (Gly4Ser)3 linker, VL, as in the parent Ab-14, and differs from it in the CDRs of the heavy chain only.
VH: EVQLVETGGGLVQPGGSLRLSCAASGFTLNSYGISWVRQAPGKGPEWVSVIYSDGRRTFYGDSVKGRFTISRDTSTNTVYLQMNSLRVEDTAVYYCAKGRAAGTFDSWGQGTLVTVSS
VL: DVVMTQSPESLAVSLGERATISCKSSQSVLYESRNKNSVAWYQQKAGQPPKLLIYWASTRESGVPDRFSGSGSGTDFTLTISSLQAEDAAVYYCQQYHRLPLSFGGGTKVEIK

Variants are written as CDR1, CDR2 and CDR3 of the heavy chain (limits as in the source). Parent: GFTLNSYGIS, VIYSDGRRTFYGDSVK, GRAAGTFDS.
Scale: log10 of Kd in nM, estimated from mating counts; low values are strong binders.
Averages over replicates are reported, and they cover detected replicates only.
"not detected" means that the variant was in the library but no mating with the target was seen in any replicate; the authors take this as a sign of poor binding, and no number exists.
The authors' rule: three or more of the six replicates give a measured affinity, fewer mean a poor binder.

CDR-H1,CDR-H2,CDR-H3,group,mean log10 Kd (nM),seen in
GFHLNSYGIS,VIYSDGRRTFYIDSVK,GQAAGTFDS,GPLM_Gen,not detected,0 of 6
KFTLNSYGIS,VIYSDGRRTFYGDSEK,GRAAGTFDT,Ctrl,1.24,1 of 6
GNTLNSYGIS,VIYSDGRRTAYGDSVK,WRAAGTFHS,Ctrl,2.81,2 of 6
GFDLNEYGIS,VIYADGMRTAYTDDVK,GNVAGTFDL,En_Gen,1.66,5 of 6
GFELNSYGIS,VIYSDGRRTFYGDSVK,GNEAGTFDT,GP_Gen,0.10,5 of 6
GFDLNEYGIS,VIYADGFRTFYADSVK,GEVAGTFDS,En_HC,-0.22,6 of 6
GFTLNSYGIS,VIYSDGMRTFYGDSVK,GRAAGHFDS,Ctrl,not detected,0 of 6
GFELEEYGIS,VIYADGKRTFYTNAVK,GTWGVFGLG,En_Gibbs,not detected,0 of 6
GFNLNSYGIS,VIYSDGRRTFYLDSVK,GNAAGTFDS,GP_Gen,0.09,6 of 6
PFDLNSYGIS,VIYSDGRRTFYIDSVK,GRQAGTFDS,GP_Gibbs,1.24,3 of 6
GFTLNEYGIS,VIYSDGTRTFYSDSVK,GRTAGTFDS,GP_HC,-0.05,6 of 6
GFDLNSYGIG,VIYSDGRRTAYGDSVK,GLAAGWFNS,Rand,not detected,0 of 6
GFDLNEYGIS,VIYADGMRTAYSDDVK,GNTAGTFDV,En_Gen,-1.20,1 of 6
GESLNSYGIS,VIYSDGRRTFYGDSVK,LKAAGTFDS,Ctrl,not detected,0 of 6
GFTLNEYGIS,VIYSDGRRTFYHDSVK,GRAAGHFDS,GP_HC,not detected,0 of 6
GFDLNEYGIS,VIYADGRRTFYHDSVK,GNLAGTFDQ,En_HC,-0.83,6 of 6
GFHLNSYGIS,VIYSDGRRTFYADSVK,GNAAGTFDS,GPLM_Gen,1.05,6 of 6
GFDLNEYGIS,VIYADGMRTAYADSVK,GGVAGTFDV,En_Gen,-1.09,6 of 6
GFDLVEYGIS,VIYADGQRTAYADTVK,GHHGGIFFM,En_Gibbs,not detected,0 of 6
GFTLNSYGIS,VIYADGRRSFYGDSVK,GEAAGTFKS,GP_HC,0.74,5 of 6
GFSLNMYGIS,VIYSDGRRTFYADSVK,GRAAGTFDS,GPLM_Gen,0.67,6 of 6
GFDLNEYGIS,VIYADGRRTFYSDKVK,GNVAGTFDI,En_HC,-0.46,6 of 6
GFDLNSYGIS,VIYSDGQRTFYGDSVK,GREAGTFDS,GP_Gen,-0.14,6 of 6
GFDLNQYGIS,VIYSDGKRTFYSDSVK,GRAAGTFDS,GP_HC,-0.34,6 of 6
GFELNDYGIS,VIYSDGRRTQYMDSVK,GRAAGTFDS,GP_HC,not detected,0 of 6
GFTLRSYGIS,VIYSDGRRTFYGDSVK,GRAAGTFDH,Ctrl,not detected,0 of 6
GFDLDEYGIS,VIYADGSRTAYADSVK,GEVAGTFDL,En_Gen,0.47,6 of 6
GFTLDSYGIS,VIYSDGRRTFYHDSVK,GRAAGTFDS,Ctrl+GP_HC,0.87,12 of 12
GFNIQDYGIS,VIYADGSRTAYAEPVK,GNIGGTIDT,En_Gibbs,not detected,0 of 6
GFDLNEYGIS,VIYADGQRTFYADSVK,GNTAGTFDV,En_Gen,-0.57,6 of 6
GFELNSYGIS,VIYSDGRRTFYGDSVK,GNAAGTFDD,GP_Gibbs,1.79,6 of 6
GFDLNEYGIS,VIYADGRRTFYADSVK,GEIAGTFDI,En_HC,-0.40,6 of 6
GFDLNEYGIS,VIYADGRRTAYTDSVK,GEVAGTFDA,En_HC,-0.01,6 of 6
GFDLNEYGIS,VIYADGRRTAYADNVK,GEVAGTFDV,En_Gen,-0.61,6 of 6
GFDLNEYGIS,VIYADGRRTAYSDSVK,GEVAGTFDI,En_Gen,-0.09,6 of 6
GFDLNSYGIS,VIYSDGRRTFYGDSVK,GKVAGTFDT,GP_Gen,0.42,6 of 6
GFDLNEYGIS,VIYADGMRTAYVDSVK,GNTAGTFDI,En_Gen,-0.43,6 of 6
GFTLNSYGIS,VIYSDGRRTGYGDDVK,GRLAGTFDS,Ctrl,1.31,5 of 6

The remaining entries, values ahead:

mean log10 Kd (nM),seen in,CDR-H1,CDR-H2,CDR-H3,group
-0.76,6 of 6,GFDLNEYGIS,VIYADGRRTFYADSVK,GKAAGTFDV,En_HC
not detected,0 of 6,GFDLNEYGIS,VIYADGKRTAYADSVK,GNHAGTFDI,En_Gen
not detected,0 of 6,GRNLDEYGIS,VIYADGLRTSYRDNVK,GQNSGHLDM,En_Gibbs
0.57,6 of 6,GFTLNSYGIS,VIYSDGRRTFYKDSVK,GQTAGTFDL,GP_Gen
not detected,0 of 6,GFTLNSYGIS,VAYADGNRTFYGDSVK,GRAAGTNKS,Rand
not detected,0 of 6,GFQLNEYGIS,VIYSDGRRTFYGDSVK,GRTAGTFWS,GP_Gen
not detected,0 of 6,GFDLNEYGVS,VIYADGIRTKYADSFK,GDVGVALFQ,En_Gibbs
not detected,0 of 6,GFTLDSYGIS,VIYSDGRRTFYGDSVK,GRAAVTALR,Rand
-0.19,6 of 6,GFDLNEYGIS,VIYADGVRTQYIDSVK,GETAGTFDS,En_HC
-0.24,6 of 6,GFELNDYGIS,VIYSDGRRTFYGDSVK,GKTAGTFDS,GP_Gen
not detected,0 of 6,GFTLNQYGIS,VIYSDGRRYFYSDSVK,GRATGFFIS,Rand
-0.29,6 of 6,GFDLNEYGIS,VIYADGMRTAYSDSVK,GETAGTFDI,En_Gen
-0.41,6 of 6,GFDLNEYGIS,VIYADGRRTFYSDKVK,GNVGGTFDV,En_HC
-0.14,6 of 6,GFTLNEYGIS,VIYSDGKRTFYGDSVK,GRTAGTFDT,GP_Gen
-0.62,6 of 6,GFDLDEYGIS,VIYADGMRTVYADSVK,GTNAGTFDV,En_Gen
0.38,6 of 6,GFSLNSYGIS,VIYSDGRRTFYADSVK,GRQAGTFDA,GPLM_Gen
not detected,0 of 6,GFTLNSGGIS,VIYSDGRRTFYSDSVK,GRAGGSFDS,Rand
not detected,0 of 6,GFDLEKQGIS,VIYADGSRSAYAQDVK,GGHAGGFHV,En_Gibbs
1.21,6 of 6,GFFLNEYGIS,VIYSDGRRTFYGDSVK,GQAAGTFDA,GP_Gibbs
0.01,6 of 6,GFDLDEYGIS,VIYADGQRTAYADSVK,GNEAGTFDQ,En_Gen
-0.79,6 of 6,GFTLDEYGIS,VIYADGRRTFYADSVK,GELAGTFDI,En_HC
-0.44,6 of 6,GFDLDEYGIS,VIYADGRRTAYSDSVK,GEVAGTFDQ,En_Gen
-0.47,6 of 6,GFDLNEYGIS,VIYADGRRTYYADSVK,GNVAGTFDS,En_HC
not detected,0 of 6,GFTLNSYGIS,VIMSDGLRTFYDDSVK,MQLAGTFDS,Rand
-0.68,6 of 6,GFDLNEYGIS,VIYADGRRTFYSDSVK,GNIAGTFIQ,En_HC
1.48,4 of 6,GFTLNSYGIS,VIYADGRRCFYGDSVK,GKAAGTSDS,Ctrl
not detected,0 of 6,GDDLEEYGIS,VIYADGRRSAYTDNVK,GHAGNIFMS,En_Gibbs
1.57,4 of 6,GFTLNEYGIS,VIYSDGRRTFYGDSVK,GRSAGTFDT,GPLM_Gen
0.02,6 of 6,GFDLNEYGIS,VIYADGTRTAYADSVK,GEVAGTFDV,En_Gen
-0.88,6 of 6,GFDLNEYGIS,VIYADGTRTAYADSVK,GNQAGTFDV,En_Gen
-0.85,6 of 6,GFDLNEYGIS,VIYADGLRTFYTDSVK,GEQAGTFDV,En_HC
not detected,0 of 6,GFTLASYGIS,VIYSDGRRTFYDDSVK,GQGAGTFDS,Rand
not detected,0 of 6,GFTLNSYGYS,VIYSDGRRTMYGDSVK,GRAAAVFDS,Ctrl
not detected,0 of 6,GFSLNEFGIS,VIYADGVRTFYTDNVK,GINVVALVI,En_Gibbs
0.21,6 of 6,GFDLNEYGIS,VIYADGRRTFYADSVK,GNTAGTFFS,En_HC
2.23,2 of 6,GFLLNDYGIS,VIYSDGRRTFYIDHVK,GKAAGTFDS,GP_HC
-0.47,6 of 6,GFDLNEYGIS,VIYADGMRTAYANDVK,GQNAGTFDV,En_Gen
0.51,12 of 12,GFSLNSYGIS,VIYSDGRRTFYGDSVK,GTAAGTFDS,Ctrl+GPLM_Gen
1.49,4 of 6,GFDLNSYGIS,VIYSDGRRTFYIDSVK,GRQAGTFDT,GP_HC

For reference, 13 entries of the list once more:

CDR-H1	CDR-H2	CDR-H3	group	mean log10 Kd (nM)	seen in
GFDLNEYGIS	VIYADGMRTAYVDSVK	GNTAGTFDI	En_Gen	-0.43	6 of 6
GFQLNEYGIS	VIYSDGRRTFYGDSVK	GRTAGTFWS	GP_Gen	not detected	0 of 6
GFDLNEYGIS	VIYADGFRTFYADSVK	GEVAGTFDS	En_HC	-0.22	6 of 6
GFELNDYGIS	VIYSDGRRTQYMDSVK	GRAAGTFDS	GP_HC	not detected	0 of 6
GFSLNEFGIS	VIYADGVRTFYTDNVK	GINVVALVI	En_Gibbs	not detected	0 of 6
GFELEEYGIS	VIYADGKRTFYTNAVK	GTWGVFGLG	En_Gibbs	not detected	0 of 6
KFTLNSYGIS	VIYSDGRRTFYGDSEK	GRAAGTFDT	Ctrl	1.24	1 of 6
GFTLDSYGIS	VIYSDGRRTFYGDSVK	GRAAVTALR	Rand	not detected	0 of 6
GFDLNEYGIS	VIYADGKRTAYADSVK	GNHAGTFDI	En_Gen	not detected	0 of 6
GFSLNSYGIS	VIYSDGRRTFYADSVK	GRQAGTFDA	GPLM_Gen	0.38	6 of 6
GFDLNEYGIS	VIYADGMRTAYSDDVK	GNTAGTFDV	En_Gen	-1.20	1 of 6
GFDLNEYGIS	VIYADGRRTAYTDSVK	GEVAGTFDA	En_HC	-0.01	6 of 6
GFTLNSYGIS	VIYSDGRRTGYGDDVK	GRLAGTFDS	Ctrl	1.31	5 of 6

The parent sequence was in this pool as ten entries: three were never detected, three once, and four in most replicates, with averages from 0.34 to 2.37.
Nonspecific signal, from three strains lacking the peptide, appeared in 1% of pairings of all heavy chain designs, centred on 2.08 (5% of these signals below 0.84); values are not corrected for it.
A sequence measured in both rounds can read differently, since the two assays cover different ranges.
Where one sequence has several entries in the source, the replicates are pooled.